The numbers were not newly measured in article PMC5618561 (International Journal of Molecular Sciences, 2017), which cites them from elsewhere.

For this series the following is noted: patients with epilepsy; corresponds to 40–100 mg/L; cited from earlier work.

Regarding `CCCC(CCC)C(=O)O` [VPA, Valproic acid], the “therapeutic blood levels (concentration range)” value is 277 to 693 µM.
